Values of other authors as cited in patent US20030104079A1, “Skin tissue regeneration promoters comprising ginsenoside Rb1” (Japan Science and Technology Corporation, Japan, priority 2000, published 2003).

Test system: permanent occlusion of the cortical branch of the middle cerebral artery
Settings: intracerebroventricular administration; Wen et al. 1998; cited from earlier work

B1: interleukin 3 (IL-3): one of colony stimulating factors (protein, UniProt P08700 20-152, looked up)
Interleukin-3: APMTQTTPLKTSWVNCSNMIDEIITHLKQPPLPLLDFNNLNGEDQDILMENNLRRPNLEAFNRAVKSLQNASAIESILKNLLPCLPLATAAPTRHPIHIKDGDWNEFRRKLTFYLKTLENAQAQQTTLSLAIF
nerve cell protection and Bcl-xL expression: protected nerve cells and promoted expression of Bcl-xL
